According to US6153429A (priority 1997, dated 2000):

Test system: T1 cells (C3H/10T1/2 fibroblasts transfected with pdBPV-1 (142-6))
Test: co-culture focus formation (transformation) assay, T1 test cells on lawn of untransfected C3H/10T1/2 cells
Conditions: 21 days; optimal dose: caffeine 150 mg/ml, tetrahydrofuran 0.1%, FeCl3 50 μM, arsenate 5 μM, mezerein 2.0 ng/ml, vanadyl 0.1 μM, arsenite 0.01 μM, cadmium 1.0 μM, diethylstilbestroel 0.5 μM, 1-methyl-3-nitro-1-nitrosguanidine 0.1 μg/ml, benzo[a]pyrene 0.033 μM

CN(N=O)C(=N)N[N+](=O)[O-]
#Foci In Treated Cells: 81 + 4 | Ratio of Treated: Untreated Foci: 1.1
